Experiments:
[1] = Trypsin digestion of peptide alone, anti-Flag Western blot; settings: 100 units/ml trypsin, 20 minutes
[2] = system: isolated rat hearts, ischemia/reperfusion injury; experiment: Infarct size (TTC staining) after ischemia/reperfusion in isolated rat hearts; settings: 20 nM for 20 min at onset of reperfusion; 20 min ischemia/90 min reperfusion
[3] = system: subsarcolemmal (SSM) and interfibrillar (IFM) mitochondria of isolated rat hearts; experiment: Peptide uptake into SSM and IFM mitochondria of Langendorff-perfused rat hearts
[4] = system: neonatal rat cardiac myocytes (NCMs) mitochondria; experiment: Peptide uptake into gradient-purified mitochondria of NCMs (anti-Flag Western blot); settings: 100 nM
[5] = system: isolated rat hearts, ischemia/reperfusion injury; experiment: Cardiac troponin I release (ELISA) after ischemia/reperfusion in isolated rat hearts; settings: 20 nM for first 20 min of reperfusion

Substance: YGRKKRRQRRR-MLATRALSLIGKRAISTSVC-AGRKLALKTIDWVSF-DYKDDD DK
- sensitivity to digestion with trypsin [1]: extensive sensitivity
- reduction of infarct size [2]: 34±8%
- Flag immunoreactivity after in vitro trypsin incubation of SSM and IFM ([3]; 20 nM perfused hearts): no loss in Flag immunoreactivity
- delivery to IFM ([3]; 20 nM, 60 minute perfusion): substantial delivery
- delivery to SSM compared with IFM ([3]; 20 nM, perfusion 20 or 60 minutes): more efficient
- uptake of peptide into gradient-purified mitochondria ([4]; 2 hrs at 37° C., NCMs): substantial uptake
- peptide uptake signal after trypsin incubation of isolated mitochondria ([4]; 2 hrs, mitochondria incubated with 100 units/ml trypsin): not altered
- reduction of cardiac troponin I fragment release compared to scrambled sequence peptide [5]: 55±11%
